# Laboratory results: PubChem BioAssay (NCI)
# The list shows a part of the results, in another mix than the full data. Calls of active or inactive are those of the source. No stated cut-off is given here; in the data, active means growth inhibition above about 70%; inactive means the rest.
# Assay: NCI Yeast Anticancer Drug Screen. Data for the sgs1 mgt1 strain (AID 161);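 further: 0% = growth of cultures given vehicle only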
# Settings: S. cerevisiae sgs1 mgt1 strain, at 50.0 µM, stronger effect = higher value
row,SMILES,growth inhibition
1,c1ccc(CN2CCC(Nc3ccccc3)CC2)cc1,inactive: 60%
2,CC(Cl)CN(CC(C)Cl)c1ccc2ccccc2c1 (configuration not stated),inactive: -0.6%
3,Cc1cc(C)c2nc(CN(CCCl)CCCl)[nH]c2c1,inactive: 13.4%
4,Cc1ccc(NC2(C(N)=O)CCNCC2)cc1,inactive: 1.55%
5,Cc1ccc(N(CCBr)CCBr)cc1,inactive: 6.7%
6,COc1ccccc1N(CCCl)CCCl,inactive: -2.75%
7,O=C(O)CCOc1ccccc1N(CCCl)CCCl,inactive: -21.9%
8,O=C1CCNCC1,inactive: -10.1%
9,Nc1c(Cl)cc(CN(CCCl)CCCl)cc1Cl,inactive: -0.9%
10,CC(C)NP(=O)(F)NC(C)C,inactive: -15.7%
11,Nc1cc([As](Cl)Cl)ccc1O,inactive: 3.8%
12,O=C(O)CN(CCCl)CCCl,inactive: -5.55%
13,Fc1cccc(CBr)c1,inactive: -6.55%
14,ClCCSC(SCCCl)=C(SCCCl)SCCCl,inactive: 4.85%
15,Cc1cc(N(CCCl)CCCl)ccc1C=C(C#N)C#N,inactive: -13.2%
16,Cc1ccc(NC2(C#N)CCN(Cc3ccccc3)CC2)cc1,inactive: -15.8%
17,CCOc1ccc(N(CCCl)CCCl)cc1,inactive: -17.2%
18,COc1cccc(N(CCCl)CCCl)c1,inactive: 21.8%
19,O=P(Cl)(Cl)N(CCF)CCCl,inactive: -11.7%
20,O=C1NC(=NC2CCCCC2)C2(CCN(CCc3ccccc3)CC2)N1c1ccccc1,inactive: 18.1%
21,COC(=O)c1ccc(C)c(N(CCCl)CCCl)c1,inactive: 9.05%
22,CCC1C(OC(=O)CC(O)(c2ccccc2)c2ccccc2)C2CCN1CC2 (configuration not stated),inactive: 3.5%
